Values of other authors as cited in US7531557B2, “Diaryl ethers as opioid receptor antagonists” (Eli Lilly and Company, priority 2002, dated 2009).
Only a part of the results on these compounds is given; other tests are left out.

Test system: mu, delta and kappa receptors in rat striatum/nucleus accumbens
Conditions: read-out: affinity of the radioligand for mu, delta and kappa receptors; radioligand used in the ex vivo binding assay; cited from earlier work

3H-diprenorphine
Kd: 0.1 to 0.4 nM
